Values joined by “and” are separate entries in the source; they are usually repeats but may differ in a detail not shown here. Equal entries are not always repeated. This is a selection; strong and weak results do not stand in their true shares. Some results for these compounds are left out of this collection, so the calls shown say nothing about other tests. Active and inactive are the calls of the source. No stated cut-off is given here; in the data, active means activity change below about -30%; inconclusive means mostly about -25% to -30%; inactive means weaker than that.

In this assay the target is L-lactate dehydrogenase A chain (Homo sapiens) (UniProt P00338). The assay can be described thus: qHTS assay for inhibitors of human lactate dehydrogenase.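 Further: values are at about 110 or 230 µM; plate controls were DMSO wells for no effect and wells without enzyme for full effect.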 Particulars: purified LDHA, NADH/diaphorase-resazurin fluorescence; active compounds read low. From the text:
LDH is a key glycolytic enzyme that catalyzes the final step in the glycolytic pathway, reducing pyruvate to lactate and regenerating NAD+ equivalents necessary for continued glycolysis. LDHA has been linked to the carcinogenesis and malignancy in numerous forms of cancers and many other diseases. Consequently, both pharma and academia have invested in significant research efforts to identify small molecule therapeutics. Such attempts have been stalled or abandoned due to limited success in discovering potent and drug-like inhibitors that can be utilized to validate LDHA in vivo as a drug target, a necessary step toward advancing such a molecule towards the clinic Towards this goal we designed and performed a quantitative high-throughput screening (qHTS) campaign to discover novel compounds that are potent inhibitors of LDHA enzyme activity and cancer cell line growth.
The assay was optimized to 1536-well plates. Briefly, 3 µL of human lactate dehydrogenase 5 (#A38558H, Meridian Life Science, Inc., Memphis, TN) in LDH assay buffer (200 mM Tris HCl pH 7.4, 100 microM EDTA and 0.01% Tween-20) was added to a black solid bottom 1536-well assay plate (Greiner Bio-One) using a BioRAPTR FRD dispenser (Beckman Coulter, Brea, CA). A 1536-well pintool dispenser outfitted with 20 nL pins (Wako Automation, San Diego, CA) was used to transfer 23 nL of DMSO-solubilized compound (both library and vehicle controls) to each 1536-well assay plate. Following compound transfer, 1 µL of substrate solution containing NADH and sodium pyruvate (Sigma-Aldrich, St. Louis, MO) in LDH assay buffer was dispensed via BioRAPTR FRD to initiate the reaction. Final concentrations in the 4 microL reaction volume were 2 nM LDHA enzyme, 0.06 mM NADH and 0.2 mM sodium pyruvate. Following a 5 minute incubation period at room temperature, 1 µL of detection reagent (C. kluyveri diaphorase (Sigma-Aldrich) and resazurin sodium salt (Sigma-Aldrich) in LDH assay buffer) was added to a total volume of 5 µL. Final concentrations of detection reagents were 0.133 mg/mL diaphorase and 37 µM resazurin. Plates were immediately transferred to a ViewLux microplate imager (PerkinElmer, Waltham, MA), and any resulting resorufin fluorescence was measured (ex540, em590 nm) at 0 and 20 minutes. Fluorescence was normalized using enzyme-free and DMSO-treated control wells on each plate.
Regarding `CC(CCN(CCCl)CCCl)c1ccccc1` (stereo not drawn), the activity change is inactive: -9.51%.

On to `O=C(CCC1CCCCC1)N1CCN(C/C=C/c2ccccc2)CC1`, for which the activity change is inactive: 10.9%.

On to `O=C(NCC1(N2CCCCC2)CCCCC1)c1cc([N+](=O)[O-])ccc1Cl`, for which the activity change is inactive: -6.85%.

As for `CN1[C@@H]2CC[C@H]1CC(OC(=O)C(O)(c1ccccc1)c1ccccc1)C2` (stereo partly drawn), the activity change is inactive: -0.316%.

`COc1cc(SC)ccc1C(=O)NCC1(N(C)C)CCCCC1`: the activity change is inactive: -6.39%.

For `CCN(CC)CC(C)C(C)OC(=O)C(O)(c1ccccc1)c1ccccc1` (stereo not drawn), the activity change was inactive: -0.58%.

In the case of `CN(C)C1(CNC(=O)c2cccc(Cl)c2)CCCCC1`, the activity change is inactive: -2.34%.

As to `CC(C)N1C(=O)CC2(CCN(CCOC(=O)C(O)(c3ccccc3)c3ccccc3)CC2)C1=O`, the activity change was inactive: -0.962%.

Consider `Cc1ccc(C(=O)NCC2(N3CCCCC3)CCCCC2)cc1`, for which the activity change is inactive: -4.81%.

On to `CN(C)C1(CNC(=O)c2ccccc2F)CCCCC1`, for which the activity change was inactive: 3.83%.

Regarding `CN(C)c1ccc(C(=O)NCC2(N(C)C)CCCCC2)cc1`, the activity change was inactive: -4.14%.

As for `CN(C)C1CCCC1OC(=O)C(O)(c1ccccc1)c1ccccc1` (stereo not drawn), the activity change is inactive: -5.64%.

For the molecule `Cc1ccccc1C(=O)NCC1(N2CCCCC2)CCCCC1`, the activity change was inactive: -4.08%.

As to `CN(C)C1(CNC(=O)c2ccccc2[N+](=O)[O-])CCCCC1`, the activity change was inactive: -10.5%.

As for `CCCCOc1ccccc1C(=O)NCC1(N(C)C)CCCCC1`, the activity change was inactive: 5.51%.

For `CCOc1ccccc1C(=O)NCC1(N(C)C)CCCCC1`, the activity change is inactive: -4.18%.

Consider `O=C(NCC1(N2CCCCC2)CCCCC1)c1cc(F)c(F)cc1Cl`, for which the activity change is inactive: -6.35%.

With `CN(C)CCOC(=O)C(O)(c1ccccc1)C1CCCCC1` (stereo not drawn), the activity change was inactive: 3.02%.

For the molecule `C=CCN1CCN(CCOC(=O)C(O)(c2ccccc2)c2ccccc2)CC1`, the activity change is inactive: 0.474%.

`CN(C)C1(CNC(=O)c2cccs2)CCCCC1`: the activity change is inactive: 9.66%.

With `CCOc1cccc(C(=O)NCC2(N(C)C)CCCCC2)c1`, the activity change is inactive: -3.76%.

With `COc1ccc(C(=O)NCC2(N(C)C)CCCCC2)cc1`, the activity change is inactive: -5.11%.

Take `O=C(NCC1(N2CCCCC2)CCCCC1)c1cccc(Br)c1`: the activity change is inactive: -6.42%.

As for `O=C(NCC1(N2CCOCC2)CCCCC1)c1cc(=O)c2ccccc2o1`, the activity change is inactive: -2.58%.

As to `CCN1CCCC(OC(=O)C2(O)c3ccccc3C=Cc3ccccc32)C1` (stereo not drawn), the activity change is inactive: -7.46%.

In the case of `Cc1cc(C(=O)NCC2(N3CCCCC3)CCCCC2)ccc1[N+](=O)[O-]`, the activity change was inactive: -5.06%.

For the molecule `O=C(CBr)c1ccc(Cl)cc1`, the activity change was inactive: 0.146%.

On to `CN(C)C1(CNC(=O)c2ccc(Br)cc2)CCCCC1`, for which the activity change was inactive: -13.7%.

For the molecule `COc1cc(C(=O)NCC2(N(C)C)CCCCC2)c([N+](=O)[O-])cc1OC`, the activity change was inactive: 1.02%.

Turning to `COc1ccc(Cl)cc1C(=O)NCC1(N(C)C)CCCCC1`, the activity change is inactive: -2.88%.

As to `COc1cccc(C(=O)NCC2(N3CCCCC3)CCCCC2)c1`, the activity change was inactive: -5.91%.

Regarding `COc1ccc(C(=O)NCC2(N(C)C)CCCCC2)cc1Cl`, the activity change is inactive: -4.09%.

With `O=C(NCC1(N2CCCCC2)CCCCC1)c1cccc(Cl)c1`, the activity change was inactive: -3.74%.

`COc1cccc(C(=O)NCC2(N3CCOCC3)CCCCC2)c1`: the activity change was inactive: -2.74%.

With `O=C(OC1CN2CCC1CC2)C(CO)(c1ccccc1)c1ccccc1` (stereo not drawn), the activity change was inactive: -2.12%.

Consider `CC(C)COc1ccc(C(=O)NCC2(N(C)C)CCCCC2)cc1`, for which the activity change was inactive: -2.3%.

As to `C=C(C)C#CC(O)(C(=O)OC1CCN(C)CC1)c1ccccc1` (stereo not drawn), the activity change is inactive: 0.843%.

Turning to `COc1ccc(Br)c(C(=O)NCC2(N3CCCCC3)CCCCC2)c1`, the activity change was inactive: -4.66%.

On to `Cc1cccc(C(=O)NCC2(N(C)C)CCCCC2)c1`, for which the activity change is inactive: -7.95%.

With `COc1cc(C(=O)NCC2(N(C)C)CCCCC2)cc(OC)c1OC`, the activity change was inactive: -1.57%.

With `O=C(OCCN1CCCC1)C(O)(c1ccccc1)c1ccccc1`, the activity change is inactive: -5.45%.

Turning to `CC(C)Oc1ccc(C(=O)NCC2(N(C)C)CCCCC2)cc1`, the activity change is inactive: -13.1% and inactive: -7.02%.

For `CN(C)c1cccc(C(=O)NCC2(N(C)C)CCCCC2)c1`, the activity change was inactive: 4.74%.

(Values after PubChem BioAssay AID1347041 (National Center for Advancing Translational Sciences (NCATS), 2019).)
